Experimental data from ChEMBL document CHEMBL1151696 (Bioorg Med Chem, 2008).

Target: Glutamate NMDA receptor
Test: Antagonist activity at NMDA receptor in cerebellar granule neurons assessed as inhibition of NMDA-induced increase in intracellular calcium concentration by fluorometric assay
Format: functional, cell-based

`CC12CC3CC(C)(C1)CC(N)(C3)C2` [MEMANTINE] gave an IC50 of 1500 nM.
